# Results from patent publication US20210161883A1, “EZH2 INHIBITOR-INDUCED GENE EXPRESSION” (Constellation Pharmaceuticals, Inc., priority 2017, published 2021).
# Tested on: global H3K27me3 levels in Karpas-422 GCB-DLBCL cells
# Test: H3K27me3 western blotting in Karpas-422 cells treated with EZH2 inhibitors
# Format: cell-based, human
# Conditions: 1.5 μM, 4 days, vs DMSO, total H3 as control
# Description: Lymphoma cell lines were grown in 10 ml cultures (as described in 2.1). […] After drug treatment, cells were centrifuged at 500×g for 3 min, supernatant was removed, and cell pellet was resuspended in 0.75 ml Trizol Reagent (Life Technologies, catalog #15596-026). RNA was extracted as per the manufacturer's protocol, resuspended in nuclease-free water, quantified using a NanoDrop 2000 UV-vis spectrophotometer (Thermo Scientific), and sent to Ocean Ridge Biosciences (http://www.oceanridgebio.com/) for RNA-sequencing. […]
# In order to detect potential EZH2 inhibitor-mediated gene expression changes that could serve as a manifestation of target engagement, Karpas-422 GCB-DLBCL cells were treated with vehicle (dimethyl sulfoxide; DMSO) or Compound 1 for 4 days. […] The samples that were committed to RNA-sequencing were analyzed for changes in H3K27me3 levels by western blotting. […]
compound,measurement,value
CCN(c1cc(-c2ccc(CN3CCOCC3)cc2)cc(C(=O)NCc2c(C)cc(C)[nH]c2=O)c1C)C1CCOCC1 [EPZ-6438],global H3K27me3 levels (western blotting),substantial loss of H3K27me3
